From publication PMC8187744, “PRMT5-mediated arginine methylation activates AKT kinase to govern tumorigenesis” (Nature Communications, 2021)

Biological target: T1, PRMT5/MEP50 bound to Myc beads
T1 construct: PRMT5; Myc-PRMT5 cloned into the pRK5-myc vector; MEP50; Myc-MEP50 cloned into the pRK5-myc vector; Flag-MEP50 was cloned too
Test: pull-down; in vitro binding: recombinant GST-AKT1 purified from mammalian cells incubated with Myc beads bound with PRMT5/MEP50, 4 °C for 4 h, with or without PIP3 (20 uM)
Conditions: both partners purified

- binding result: binds
B1: GST-AKT1 (natural protein, human, UniProt P31749 1-480, looked up)
chain: MSDVAIVKEGWLHKRGEYIKTWRPRYFLLKNDGTFIGYKERPQDVDQREAPLNNFSVAQCQLMKTERPRPNTFIIRCLQWTTVIERTFHVETPEEREEWTTAIQTVADGLKKQEEEEMDFRSGSPSDNSGAEEMEVSLAKPKHRVTMNEFEYLKLLGKGTFGKVILVKEKATGRYYAMKILKKEVIVAKDEVAHTLTENRVLQNSRHPFLTALKYSFQTHDRLCFVMEYANGGELFFHLSRERVFSEDRARFYGAEIVSALDYLHSEKNVVYRDLKLENLMLDKDGHIKITDFGLCKEGIKDGATMKTFCGTPEYLAPEVLEDNDYGRAVDWWGLGVVMYEMMCGRLPFYNQDHEKLFELILMEEIRFPRTLGPEAKSLLSGLLKKDPKQRLGGGSEDAKEIMQHRFFAGIVWQHVYEKKLSPPFKPQVTSETDTRYFDEEFTAQMITITPPDQDDSMECVDSERRPHFPQFSYSASGTA
notes: AKT1, CMV-GST-AKT1 in the mammalian expression pCMV-GST vector; also called AKT1-WT; recombinant GST-AKT1 protein; source: purified from mammalian cells
